# Literature values, collected in patent US20030133972A1, “Targeted multivalent macromolecules” (priority 2000, published 2003).
# The chains behind the UniProt entries cited, without tags or fusion partners. Residues count along the entry.
# UniProt P35968, 20-1356, species assumed: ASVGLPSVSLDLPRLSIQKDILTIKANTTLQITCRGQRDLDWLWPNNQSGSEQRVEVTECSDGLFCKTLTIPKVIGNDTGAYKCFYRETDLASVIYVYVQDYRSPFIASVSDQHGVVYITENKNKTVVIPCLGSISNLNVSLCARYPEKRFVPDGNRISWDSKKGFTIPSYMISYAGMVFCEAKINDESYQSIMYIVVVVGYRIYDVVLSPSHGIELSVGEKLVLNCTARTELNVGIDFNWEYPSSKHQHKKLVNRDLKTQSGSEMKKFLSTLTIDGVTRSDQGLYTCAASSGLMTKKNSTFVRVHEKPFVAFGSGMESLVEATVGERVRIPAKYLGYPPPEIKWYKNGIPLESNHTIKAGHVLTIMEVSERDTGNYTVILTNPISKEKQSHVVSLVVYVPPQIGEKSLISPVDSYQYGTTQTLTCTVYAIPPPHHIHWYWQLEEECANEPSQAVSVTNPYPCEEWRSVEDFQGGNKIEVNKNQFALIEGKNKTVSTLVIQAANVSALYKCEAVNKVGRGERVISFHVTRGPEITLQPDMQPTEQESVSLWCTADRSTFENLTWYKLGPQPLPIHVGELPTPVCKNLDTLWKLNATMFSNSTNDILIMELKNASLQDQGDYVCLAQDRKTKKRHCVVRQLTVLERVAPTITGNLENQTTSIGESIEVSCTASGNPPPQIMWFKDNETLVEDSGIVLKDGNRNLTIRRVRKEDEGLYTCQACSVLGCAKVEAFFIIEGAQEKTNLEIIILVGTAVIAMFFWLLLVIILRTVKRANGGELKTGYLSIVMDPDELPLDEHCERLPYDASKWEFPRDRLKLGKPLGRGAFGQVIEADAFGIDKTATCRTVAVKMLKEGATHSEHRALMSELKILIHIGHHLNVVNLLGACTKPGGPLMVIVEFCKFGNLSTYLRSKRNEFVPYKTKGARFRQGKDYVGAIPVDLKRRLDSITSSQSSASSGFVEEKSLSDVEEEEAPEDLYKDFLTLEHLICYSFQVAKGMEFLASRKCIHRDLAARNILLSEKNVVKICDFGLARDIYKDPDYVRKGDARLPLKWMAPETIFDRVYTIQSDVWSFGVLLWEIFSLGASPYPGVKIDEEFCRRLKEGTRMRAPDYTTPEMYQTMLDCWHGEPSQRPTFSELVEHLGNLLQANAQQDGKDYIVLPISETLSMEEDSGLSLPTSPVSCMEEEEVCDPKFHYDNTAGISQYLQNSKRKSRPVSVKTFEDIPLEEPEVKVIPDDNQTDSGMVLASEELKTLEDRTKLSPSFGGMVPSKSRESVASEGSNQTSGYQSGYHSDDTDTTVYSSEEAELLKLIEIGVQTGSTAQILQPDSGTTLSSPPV
# Molecular target: VEGFR2 (Homo sapiens, UniProt P35968)
# Conditions: cited from earlier work
substance,measurement,value
VEGF,Kd,0.05 to 0.77 nM
